Chains of the proteins cited; added tags and fusions are not shown.
UniProt O35433, whole entry: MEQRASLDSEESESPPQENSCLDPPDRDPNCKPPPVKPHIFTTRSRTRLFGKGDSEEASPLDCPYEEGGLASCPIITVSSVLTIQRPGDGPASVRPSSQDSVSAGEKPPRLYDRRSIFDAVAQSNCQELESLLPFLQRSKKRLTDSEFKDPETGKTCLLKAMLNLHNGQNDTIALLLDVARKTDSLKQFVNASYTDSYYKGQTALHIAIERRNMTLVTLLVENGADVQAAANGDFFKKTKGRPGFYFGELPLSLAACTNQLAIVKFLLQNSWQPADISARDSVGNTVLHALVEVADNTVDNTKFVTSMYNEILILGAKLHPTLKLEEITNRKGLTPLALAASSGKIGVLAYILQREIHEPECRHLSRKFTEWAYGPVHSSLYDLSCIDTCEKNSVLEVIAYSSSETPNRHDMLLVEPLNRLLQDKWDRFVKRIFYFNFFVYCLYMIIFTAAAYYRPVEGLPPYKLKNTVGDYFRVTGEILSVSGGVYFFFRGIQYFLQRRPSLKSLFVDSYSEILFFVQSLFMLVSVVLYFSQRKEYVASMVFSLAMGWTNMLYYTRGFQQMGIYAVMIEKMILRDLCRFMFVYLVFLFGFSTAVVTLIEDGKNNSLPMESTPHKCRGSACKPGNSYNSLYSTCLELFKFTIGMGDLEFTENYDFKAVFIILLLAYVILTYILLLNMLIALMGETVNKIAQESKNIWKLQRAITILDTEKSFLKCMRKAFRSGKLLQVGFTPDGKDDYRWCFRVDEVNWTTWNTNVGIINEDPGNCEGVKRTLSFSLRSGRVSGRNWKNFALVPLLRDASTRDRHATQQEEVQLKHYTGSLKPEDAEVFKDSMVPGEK

In patent US11274073B2, “TRPV1 modulator compounds” (ANTALGENICS, S.L., priority 2017, dated 2022):

Target: rat TRPV1 channel (Rattus norvegicus, UniProt O35433)
Test: Calcium microfluorometry assay on TRPV1-SH-SY5Y cells, single concentration 10 μM
Type: cell-based
Settings: compound 10 μM before stimulation with 10 μM capsaicin, RR (10 μM Ruthenium Red) = 100%

## COc1cc(CNC(=O)COC(=O)/C=C(\C)CCC=C(C)C)c(I)cc1O
  TRPV1 blockage at 10 μM (% ± SD): 77.28 ± 11.85%
